# Test results published in ChEMBL document CHEMBL1132927, “New proline mimetics: synthesis of thrombin inhibitors incorporating cyclopentane- and cyclopentenedicarboxylic acid templates in the P2 position. Binding conformation investigated by X-ray crystallography” (J Med Chem, 2000).
# Molecular target: Prothrombin (Homo sapiens, UniProt P00734)
# Assay: In vitro for the inhibition of thrombin
row,IC50 [µM],SMILES
1,13.2,CCN(C(=O)[C@@H]1CCC[C@H]1C(=O)NCc1ccc(C(=N)N)cc1)C1CCCCC1
2,0.89,CCN(C(=O)C1=CCC[C@H]1C(=O)NCc1ccc(C(=N)N)cc1)C1CCCCC1
